Earlier results as cited in patent publication US20060143718A1, “Transgenic animals for monitoring water quality” (priority 2000, published 2006).

Settings: cited from earlier work

**Q.** Which “levels in fish muscle tissue compared with surrounding water” value (fish muscle tissue vs water) does the source give for mercury [Hg] here?
**A.** more than 40,000 times

**Q.** And the bioconcentration (fish, in the food chain)?
**A.** > 40,000 times
